Assay [1] has as its target TSH receptor on differentiated murine 3T3 L1 adipocytes (murine, UniProt P47750 22-764). The experiment in a line: cell-based or functional assay.
Assay [2] addresses TSH receptor on primary human adipocytes (human, UniProt P16473 21-764). The experiment in a line: cell-based or functional assay.

Chains of the proteins cited; added tags and fusions are not shown. Residues count along the entry.
UniProt P47750, 22-764: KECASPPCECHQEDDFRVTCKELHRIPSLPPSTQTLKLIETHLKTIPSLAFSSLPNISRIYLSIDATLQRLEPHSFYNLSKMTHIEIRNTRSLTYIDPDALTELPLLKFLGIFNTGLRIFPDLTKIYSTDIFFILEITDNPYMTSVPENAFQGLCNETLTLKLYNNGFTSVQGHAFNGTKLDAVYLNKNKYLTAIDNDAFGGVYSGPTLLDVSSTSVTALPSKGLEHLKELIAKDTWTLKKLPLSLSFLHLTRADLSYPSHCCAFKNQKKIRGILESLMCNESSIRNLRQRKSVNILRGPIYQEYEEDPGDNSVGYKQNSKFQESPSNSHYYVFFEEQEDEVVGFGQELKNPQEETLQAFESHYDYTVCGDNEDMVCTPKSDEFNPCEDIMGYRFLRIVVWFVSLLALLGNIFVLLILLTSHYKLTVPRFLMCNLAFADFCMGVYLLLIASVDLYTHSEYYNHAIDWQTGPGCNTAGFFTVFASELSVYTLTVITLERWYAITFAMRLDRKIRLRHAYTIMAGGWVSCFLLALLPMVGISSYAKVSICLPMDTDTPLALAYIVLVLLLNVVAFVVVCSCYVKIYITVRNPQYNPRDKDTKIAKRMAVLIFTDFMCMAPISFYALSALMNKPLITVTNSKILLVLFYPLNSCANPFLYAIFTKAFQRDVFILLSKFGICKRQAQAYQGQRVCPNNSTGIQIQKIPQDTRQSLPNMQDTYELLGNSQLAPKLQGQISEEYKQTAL
UniProt P16473, 21-764: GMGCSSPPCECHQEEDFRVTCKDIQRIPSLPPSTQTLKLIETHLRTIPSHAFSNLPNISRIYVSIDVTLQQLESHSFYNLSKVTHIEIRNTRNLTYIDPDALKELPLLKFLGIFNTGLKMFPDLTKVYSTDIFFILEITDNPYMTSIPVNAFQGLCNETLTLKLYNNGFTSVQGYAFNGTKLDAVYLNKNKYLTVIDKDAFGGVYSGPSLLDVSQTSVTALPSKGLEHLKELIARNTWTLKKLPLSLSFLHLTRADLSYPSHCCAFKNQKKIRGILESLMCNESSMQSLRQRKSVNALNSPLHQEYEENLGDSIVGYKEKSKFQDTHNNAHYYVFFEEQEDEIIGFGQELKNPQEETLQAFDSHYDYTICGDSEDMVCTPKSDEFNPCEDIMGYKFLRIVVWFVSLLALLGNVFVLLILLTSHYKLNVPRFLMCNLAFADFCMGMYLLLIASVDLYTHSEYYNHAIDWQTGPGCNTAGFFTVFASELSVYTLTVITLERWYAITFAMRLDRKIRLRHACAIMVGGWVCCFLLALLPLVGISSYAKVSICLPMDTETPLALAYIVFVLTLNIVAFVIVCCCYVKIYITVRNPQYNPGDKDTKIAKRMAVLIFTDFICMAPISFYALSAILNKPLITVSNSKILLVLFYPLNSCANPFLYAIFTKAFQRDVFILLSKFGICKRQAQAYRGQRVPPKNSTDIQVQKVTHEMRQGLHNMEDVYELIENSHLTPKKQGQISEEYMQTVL

B1: thyroid-stimulating hormone (TSH) (ligand)
chain 1: not shown
chain 2: FCIPTEYTMHIERRECAYCLTINTTICAGYCMTRDINGKLFLPKYALSQDVCTYRDFIYRTVEIPGCPLHVAPYFSYPVALSCKCGKCNTDYSDCIHEAIKTNYCTKPQKSY
Regarding B1, in assay [1], the “induction of luciferase expression (CRE-driven luciferase reporter, differentiated 3T3 L1 adipocytes)” value came to 24 fold. The “induction of the reporter gene (CRE-driven luciferase reporter, primary human adipocytes)” value in assay [2] worked out at 20 fold.

The values above are taken from patent US20040176294A1 (published 2004).
